The record followed here is PubChem BioAssay (Tox21).

By UniProt entry, the sequences of proteins in these tests, tags left out. Where a name states a change or a piece, a line headed by the entry shows the natural chain unless it says otherwise.
UniProt P03372, whole entry, looked up: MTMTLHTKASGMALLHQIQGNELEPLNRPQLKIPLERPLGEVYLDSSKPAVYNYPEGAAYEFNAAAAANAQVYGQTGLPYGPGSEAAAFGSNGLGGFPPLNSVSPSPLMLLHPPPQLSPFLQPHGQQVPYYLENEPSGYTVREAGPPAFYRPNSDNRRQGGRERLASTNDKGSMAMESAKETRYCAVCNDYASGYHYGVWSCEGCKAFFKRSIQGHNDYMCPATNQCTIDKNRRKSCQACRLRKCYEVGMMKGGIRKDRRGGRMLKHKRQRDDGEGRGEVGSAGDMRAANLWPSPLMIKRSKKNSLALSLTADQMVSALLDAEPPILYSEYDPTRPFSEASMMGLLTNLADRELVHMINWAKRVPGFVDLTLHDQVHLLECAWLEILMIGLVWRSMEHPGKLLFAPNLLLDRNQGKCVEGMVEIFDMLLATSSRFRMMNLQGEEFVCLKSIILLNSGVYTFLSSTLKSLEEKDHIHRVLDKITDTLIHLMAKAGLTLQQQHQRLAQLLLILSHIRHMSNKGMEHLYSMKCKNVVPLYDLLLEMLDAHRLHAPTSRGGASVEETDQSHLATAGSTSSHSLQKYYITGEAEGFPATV
UniProt P16473, whole entry, looked up: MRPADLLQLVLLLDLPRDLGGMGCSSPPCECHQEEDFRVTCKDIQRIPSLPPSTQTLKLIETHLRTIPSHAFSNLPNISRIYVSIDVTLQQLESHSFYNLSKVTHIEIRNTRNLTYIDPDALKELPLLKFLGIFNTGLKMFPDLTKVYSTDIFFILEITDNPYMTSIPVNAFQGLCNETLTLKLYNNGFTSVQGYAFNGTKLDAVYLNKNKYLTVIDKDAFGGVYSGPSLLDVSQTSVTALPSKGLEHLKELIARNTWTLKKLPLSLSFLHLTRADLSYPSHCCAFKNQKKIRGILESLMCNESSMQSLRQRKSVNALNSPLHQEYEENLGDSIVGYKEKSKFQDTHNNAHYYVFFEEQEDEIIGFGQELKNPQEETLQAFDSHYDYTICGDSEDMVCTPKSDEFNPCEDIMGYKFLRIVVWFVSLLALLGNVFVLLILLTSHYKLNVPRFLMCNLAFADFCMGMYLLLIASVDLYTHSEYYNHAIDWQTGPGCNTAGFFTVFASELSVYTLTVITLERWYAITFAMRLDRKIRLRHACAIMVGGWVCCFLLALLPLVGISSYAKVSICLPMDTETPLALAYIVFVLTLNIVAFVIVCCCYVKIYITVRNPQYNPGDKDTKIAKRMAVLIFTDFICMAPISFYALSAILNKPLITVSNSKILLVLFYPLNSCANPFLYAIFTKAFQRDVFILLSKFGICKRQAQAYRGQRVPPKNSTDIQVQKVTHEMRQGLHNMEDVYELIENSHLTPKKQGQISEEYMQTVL
UniProt Q92731, whole entry, looked up: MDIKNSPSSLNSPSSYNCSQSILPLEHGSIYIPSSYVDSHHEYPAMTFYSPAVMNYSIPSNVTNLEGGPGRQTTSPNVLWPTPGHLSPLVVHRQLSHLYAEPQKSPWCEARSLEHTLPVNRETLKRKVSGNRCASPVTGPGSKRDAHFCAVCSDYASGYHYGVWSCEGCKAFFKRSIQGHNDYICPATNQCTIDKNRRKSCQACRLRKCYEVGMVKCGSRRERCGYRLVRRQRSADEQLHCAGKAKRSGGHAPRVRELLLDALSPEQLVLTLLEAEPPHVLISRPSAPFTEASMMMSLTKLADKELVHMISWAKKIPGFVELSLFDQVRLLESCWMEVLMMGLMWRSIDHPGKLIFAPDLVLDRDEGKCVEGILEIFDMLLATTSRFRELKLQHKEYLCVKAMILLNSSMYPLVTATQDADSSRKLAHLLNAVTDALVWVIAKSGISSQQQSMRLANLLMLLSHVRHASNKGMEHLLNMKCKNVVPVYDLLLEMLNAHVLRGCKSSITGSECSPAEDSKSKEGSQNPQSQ
UniProt P10275: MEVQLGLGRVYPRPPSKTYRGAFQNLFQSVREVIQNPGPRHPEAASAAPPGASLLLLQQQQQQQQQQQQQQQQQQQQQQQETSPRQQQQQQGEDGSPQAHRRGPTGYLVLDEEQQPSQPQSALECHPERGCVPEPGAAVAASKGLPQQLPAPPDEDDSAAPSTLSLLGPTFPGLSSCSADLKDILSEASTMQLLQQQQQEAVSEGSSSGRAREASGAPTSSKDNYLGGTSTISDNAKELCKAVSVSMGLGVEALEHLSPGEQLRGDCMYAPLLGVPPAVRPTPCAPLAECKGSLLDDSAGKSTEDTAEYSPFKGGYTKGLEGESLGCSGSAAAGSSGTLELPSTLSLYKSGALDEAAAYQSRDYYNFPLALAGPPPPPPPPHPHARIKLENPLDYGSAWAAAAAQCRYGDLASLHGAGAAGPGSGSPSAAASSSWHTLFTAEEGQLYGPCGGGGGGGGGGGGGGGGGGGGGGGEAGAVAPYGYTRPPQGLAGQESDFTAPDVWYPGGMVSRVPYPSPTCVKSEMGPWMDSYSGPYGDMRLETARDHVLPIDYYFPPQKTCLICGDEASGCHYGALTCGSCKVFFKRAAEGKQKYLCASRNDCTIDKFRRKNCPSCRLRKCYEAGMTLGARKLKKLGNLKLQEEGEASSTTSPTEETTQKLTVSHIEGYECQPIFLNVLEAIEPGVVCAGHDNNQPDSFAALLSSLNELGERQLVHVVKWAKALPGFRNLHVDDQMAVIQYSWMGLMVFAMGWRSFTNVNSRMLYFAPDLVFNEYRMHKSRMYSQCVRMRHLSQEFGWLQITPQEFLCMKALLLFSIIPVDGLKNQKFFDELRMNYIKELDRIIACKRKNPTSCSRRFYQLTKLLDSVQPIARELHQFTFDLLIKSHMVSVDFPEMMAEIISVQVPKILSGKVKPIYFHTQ

Values joined by “and” are separate entries in the source; they are usually repeats but may differ in a detail not shown here. Identical values can stand only once. The list shows a part of the results, in another mix than the full data. Inconclusive results are not listed. A structure can be active in one record and inactive in another. Active and inactive are the calls of the source. Unless noted, calls follow the shape of the dose curve; as a rule, active = well fitted curve in the direction sought with a large enough effect in the repeat runs; inconclusive = weak or mixed curves; inactive = no such curve, though single readings can be large; an effect the other way counts as inactive or inconclusive.

Experiment [1] can be described thus: qHTS RealTime-Glo MT Cell Viability Assay in HEK293 cells - 24 hour (AID 1224886). Also: nearly all actives have a fitted effect of over 50% in size. Also: potency is read from the fitted curve at half-maximal effect. As to activity change, negative = cytotoxicity: top concentration of the series differs between compounds. The essentials:
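Quantitative high-throughput screen of the Tox21 10K library in HEK293: cells and RealTime-Glo reagents plated together, compound added at 5 h, luminescence monitored through 40 h at 37 C.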
In general terms: qHTS replaces the single test concentration by a dilution series.

A short description of experiment [2]: A CellTox Green Cytotoxicity Assay to monitor cytotoxicity in HEK293 cells - 16 hour (AID 1224888). Also: nearly all actives have a fitted effect of over 35% in size. Also: potency is read from the fitted curve at half-maximal effect. An outline of the steps: (§1)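 Real-time, in one plate: 600 HEK293 cells/well with dead-cell DNA dye, pinned compound after 5 h, 37 C incubation over 40 h; viable cells give no appreciable fluorescence.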
Experiment [3] is described as follows: qHTS RealTime-Glo MT Cell Viability Assay in HepG2 cells - 0 hour (AID 1224889). Also: nearly all actives have a fitted effect of over 50% in size. The settings on record: RealTime-Glo luminescence. An outline of the steps: (§2)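 Compound treatment began 5 h after plating HepG2 cells (600/well) with NanoLuc luciferase and prosubstrate. Plates stayed at 37 C for 40 h; luminescence was captured at six time points, 0 h through 40 h.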

The nature of experiment [4]: qHTS assay to identify small molecule HDAC inhibitors (AID 1259364).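 Also: wild-type HCT-116 cells with endogenous class I/II HDAC activity; top concentration of the series differs between compounds; nearly all actives have a fitted effect of over 45% in size.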 As to conditions: HCT-116 HDAC-Glo I/II luminescence, 2 h. An outline of the steps: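 HCT-116 wt cells, 1,500/well, overnight attach. Compounds (DMSO) 2 h, 37 °C. HDAC-Glo I/II, 30 min RT. Luminescence.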
Experiment [5] can be described thus: qHTS assay to identify small molecule agonists of the sonic hedgehog signaling (Shh) pathway (AID 1259368; calls by dose curve;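 also: NIH/3T3-derived 3T3Gli1-Luc cells carrying a stable Gli1-driven firefly luciferase reporter; nearly all actives have a fitted effect of over 15% in size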). As to conditions: NIH/3T3 Gli1-Luc reporter, luciferase, 24 h, hits give high values. The essentials: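 Following a 24 hr incubation with DMSO-dissolved compounds at 37 C, 5% CO2, Gli1-Luc NIH/3T3-derived cells received luciferase reagent for 30 min at room temperature prior to luminescence measurement.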

Experiment [6] concerns the target Estrogen receptor (Homo sapiens) (UniProt P03372). The experiment in a line: qHTS assay to identify small molecule agonists of the estrogen receptor alpha (ER-alpha) signaling pathway in the presence of an antagonist (AID 1259383; calls by dose curve; also: top concentration of the series differs between compounds; nearly all actives have a fitted effect of over 15% in size). As to conditions: VM7Luc4E2 cells, ERE-luciferase, +ICI-182,780, 22 h; at 92.4 µM (top of the series) unless noted.
Experiment [7] can be described thus: qHTS assay to identify small molecule agonists or antagonists of the thyroid stimulating hormone receptor (TSHR) signaling pathway - wild type cell line counter screen (AID 1259384; calls by dose curve). The settings on record: HEK293 wild type, cAMP HTRF counter-screen, hits give high values; at 92.4 µM (top of the series) unless noted. The essentials: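 Wild-type Hek293 cells, 800/well, 18 h at 37C, then compound with Ro20-1724 for 30 min RT. cAMP by HTRF (cAMP-d2/anti-cAMP cryptate), 1 h RT, fluorescence read. 15 concentrations, triplicates.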

Experiment [8] addresses Thyrotropin receptor (Homo sapiens) (UniProt P16473). The experiment in a line: qHTS assay to identify small molecule antagonists of the thyroid stimulating hormone receptor (TSHR) signaling pathway (AID 1259385; calls by dose curve; also: nearly all actives have a fitted effect of over 20% in size). As to conditions: TSHR-HEK293 cAMP HTRF, TSH-stimulated antagonist mode; at 92.4 µM (top of the series) unless noted.
The nature of experiment [9]: A CellTox Green Cytotoxicity Assay to monitor cytotoxicity in HepG2 cells - 32 hour (AID 1224883). Also: nearly all actives have a fitted effect of over 50% in size. An outline of the steps: (§3)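 Cytotoxicity was tracked as dead-cell DNA fluorescence in HepG2 cells treated with test compounds at 37 C; each time-point value comes from one kinetic series spanning 0, 8, 16, 24, 32 and 40 h.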
The nature of experiment [10]: A CellTox Green Cytotoxicity Assay to monitor cytotoxicity in HEK293 cells - 8 hour (AID 1224884). Also: nearly all actives have a fitted effect of over 35% in size. Also: potency is read from the fitted curve at half-maximal effect. An outline of the steps: as §1
A short description of experiment [11]: qHTS RealTime-Glo MT Cell Viability Assay in HepG2 cells - 16 hour (AID 1224885). Also: nearly all actives have a fitted effect of over 50% in size. Also: potency is read from the fitted curve at half-maximal effect. An outline of the steps:
as §2

Experiment [12] is described as follows: qHTS RealTime-Glo MT Cell Viability Assay in HEK293 cells - 8 hour (AID 1224887). Also: nearly all actives have a fitted effect of over 50% in size. Also: potency is read from the fitted curve at half-maximal effect. As to activity change, negative = cytotoxicity: top concentration of the series differs between compounds. The essentials:
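Kinetic, non-lysing viability readout. Seed HEK293 (600/well) with reagent, incubate 5 h at 37 C/5% CO2, pin 23 nL compound in DMSO, incubate at 37 C, read luminescence at 0, 8, 16, 24, 32, 40 h.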

Experiment [13] is described as follows: A CellTox Green Cytotoxicity Assay to monitor cytotoxicity in HepG2 cells - 8 hour (AID 1224890). Also: nearly all actives have a fitted effect of over 45% in size. The essentials: as §3
The target of experiment [14] is Estrogen receptor (Homo sapiens) (UniProt P03372). The experiment in a line: qHTS assay to identify small molecule antagonists of the estrogen receptor alpha (ER-alpha) signaling pathway using the BG1 cell line in the presence of 0.1 nM 17-beta-estradiol (AID 1259244). Also: nearly all actives have a fitted effect of over 50% in size. The settings on record: VM7Luc4E2 (BG1) ERE-luciferase, antagonist mode, 0.1 nM E2, 22 h; at 92.4 µM (top of the series) unless noted.

Experiment [15] in a line: qHTS assay to identify small molecule agonists of the sonic hedgehog signaling (Shh) pathway - cell viability counter screen (AID 1259366). Also: nearly all actives have a fitted effect of over 50% in size. An outline of the steps:
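NIH/3T3-derived Gli1-Luc reporter cells, 2,000 per well, received compound after 4 h and were treated about 23 h at 37C. Viability measured in the same wells by CellTiter-Fluor fluorescence after 1 h.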

The target of experiment [16] is Estrogen receptor beta (Homo sapiens) (UniProt Q92731). The experiment in a line: qHTS assay to identify small molecule agonists of the estrogen receptor beta (ER-beta) signaling pathway (AID 1259377; active = well fitted activation curve with a large enough effect in the signal ratio in the repeat runs, not every such curve was filed as active; the % refers to the signal ratio). The settings on record: ER-beta-UAS-bla HEK293T, beta-lactamase FRET ratio, 16 h; at 92.4 µM (top of the series) unless noted.
For experiment [17] the target is unchanged. The experiment in a line: qHTS assay to identify small molecule antagonists of the estrogen receptor beta (ER-beta) signaling pathway (AID 1259378; active = well fitted inhibition curve with a large enough effect in the signal ratio in the repeat runs, not every such curve was filed as active; the % refers to the signal ratio). The settings on record: ER-beta-UAS-bla HEK293T, beta-lactamase FRET ratio, 16 h. The essentials:
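ER-beta-UAS-bla HEK293T cells in 2% charcoal-stripped FBS medium treated with compound plus 1nM final 17-beta-estradiol for 16 hr at 37C. Beta-lactamase reporter read by FRET substrate fluorescence after 2 hours at room temperature.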

A short description of experiment [18]: qHTS assay to identify small molecule agonists of the androgen receptor (AR) signaling pathway in the presence of an antagonist - cell viability counter screen (AID 1259379).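 Also: MDA-kb2 human breast cancer cells carrying an MMTV luciferase reporter; nearly all actives have a fitted effect of over 25% in size.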 The essentials:
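Each compound was tested at 15 concentrations on MDA-kb2 cells in the presence of 3.0uM nilutamide. Viability was measured by CellTiter-Fluor fluorescence after a 16 hr incubation at 37C in a CO2-free atmosphere.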

In experiment [19] the target is Androgen receptor (Homo sapiens) (UniProt P10275). The experiment in a line: qHTS assay to identify small molecule agonists of the androgen receptor (AR) signaling pathway in the presence of an antagonist (AID 1259381; calls by dose curve; also: nearly all actives have a fitted effect of over 15% in size). As to conditions: MDA-kb2 MMTV-luciferase, AR agonist + nilutamide, 16 h.
Setting [20] is: at 76.8 µM (top of the series) unless noted.
[21] abbreviates: at 92.4 µM (top of the series) unless noted.
% is scaled to controls: 0 for no effect and ±100 for the full control effect.

`CCCCCCCCCCCCCC[P+](CCCCCC)(CCCCCC)CCCCCC`: the Potency is active: 6.9 µM in experiment [1] and active: 24.5 µM in [2]. The activity change, negative = cytotoxicity in experiment [3] (setting [20]) is inactive: -13.3%. For the same compound, the activity change, negative = inhibition was inactive: 4.66% in [4] (setting [21]) and inactive: -0.26% in experiment [8]. Also, in [5] (setting [21]), the activity change was inactive: -19.9%. Also, the activation in experiment [6] was inactive: -13.6%. For the same compound, the cAMP activity change in experiment [7] is inactive: 0.106%.

`ClP(Cl)c1ccccc1`: the Potency entry in experiment [9], in [10], in experiment [11], in experiment [1], in experiment [12] and in [2] was “inactive” throughout. The Potency result in [13], in experiment [15] and in experiment [18] was “inactive” each time. Moreover, the activity change, negative = cytotoxicity in experiment [3] (setting [20]) was inactive: 0.429%. Further, the activity change, negative = inhibition in experiment [14] is inactive: 0.0296%; in experiment [4] (setting [21]), inactive: -0.536%. Besides, in experiment [5] (setting [21]), the activity change is inactive: -1.16%. Further, the activation in experiment [16] was inactive: 3.19%; in [6], inactive: -2.32%. Moreover, the activity, negative = inhibition in experiment [17] (at 92.4 µM (top of the series)) is inactive: -2.01%.

For `O=C1C2CC=CCC2C(=O)N1SC(Cl)(Cl)C(Cl)Cl` (configuration not stated), the Potency in [10] was active: 39.2 µM and active: 9.77 µM; in experiment [11] it was active: 44 µM and active: 6.92 µM; in experiment [12], active: 22 µM and active: 9.77 µM; in experiment [2], active: 39.2 µM and active: 9.77 µM. Moreover, the activity change, negative = cytotoxicity in [3] (setting [20]) is inactive: -26.1% and inactive: -27.3%. Further, in [4] (setting [21]), the activity change, negative = inhibition was inactive: -1.84% and inactive: 0.505%. Further, in experiment [5] (setting [21]), the activity change was inactive: -8.55% and inactive: -13.4%. Further, the activation in [19] (at 92.4 µM (top of the series)) was inactive: -9.15% and inactive: -11.1%. The cAMP activity change in experiment [7] was inactive: -8.78% and inactive: -0.313%.

`NC(=O)Nc1ccc([As](=O)(O)O)cc1`: the Potency result in [9], in [10], in experiment [11], in experiment [1], in experiment [12] and in experiment [2] was “inactive” each time. Further, the Potency entry in experiment [13] and in experiment [18] was “inactive” throughout. Besides, the activity change, negative = cytotoxicity in experiment [3] (at 35.3 µM (top of the series)) is inactive: -1.93%; in experiment [3] (at 76.8 µM (top of the series)), inactive: -1.53%. Besides, the activity change, negative = inhibition in experiment [4] (at 42.5 µM (top of the series)) was inactive: 0.633%; in experiment [4] (at 92.4 µM (top of the series)), inactive: 6.3%. The activity change was inactive: 1.72% in experiment [5] (at 42.5 µM (top of the series)) and inactive: 0.192% in experiment [5] (at 92.4 µM (top of the series)). Further, the results for the activation in experiment [16], in [19] (at 42.5 µM (top of the series)) and in experiment [19] (at 92.4 µM (top of the series)) were inactive: 4.86% [at 42.5 µM], inactive: -0.18% and inactive: -0.771%, respectively. Also, the activity, negative = inhibition in [17] (at 42.5 µM (top of the series)) is inactive: -0.222%; in [17] (at 92.4 µM (top of the series)), inactive: 1.58%.

For the compound `O=[N+]([O-])c1ccc([N+](=O)[O-])cc1`, the Potency entry in experiment [9], in experiment [10], in experiment [1], in experiment [2] and in experiment [13] was “inactive” each time. In addition, the activity change, negative = cytotoxicity in experiment [3] (setting [20]) was inactive: -17.6%. In experiment [5] (setting [21]), the activity change is inactive: 3.78%. The activation in [6] was inactive: 11%. Further, in experiment [7], the cAMP activity change is inactive: 8.78%. The activity change, negative = inhibition in experiment [8] is inactive: 8.25%.
